Amino acid sequences for entries named in this document (tags omitted).
UniProt P33261, whole entry: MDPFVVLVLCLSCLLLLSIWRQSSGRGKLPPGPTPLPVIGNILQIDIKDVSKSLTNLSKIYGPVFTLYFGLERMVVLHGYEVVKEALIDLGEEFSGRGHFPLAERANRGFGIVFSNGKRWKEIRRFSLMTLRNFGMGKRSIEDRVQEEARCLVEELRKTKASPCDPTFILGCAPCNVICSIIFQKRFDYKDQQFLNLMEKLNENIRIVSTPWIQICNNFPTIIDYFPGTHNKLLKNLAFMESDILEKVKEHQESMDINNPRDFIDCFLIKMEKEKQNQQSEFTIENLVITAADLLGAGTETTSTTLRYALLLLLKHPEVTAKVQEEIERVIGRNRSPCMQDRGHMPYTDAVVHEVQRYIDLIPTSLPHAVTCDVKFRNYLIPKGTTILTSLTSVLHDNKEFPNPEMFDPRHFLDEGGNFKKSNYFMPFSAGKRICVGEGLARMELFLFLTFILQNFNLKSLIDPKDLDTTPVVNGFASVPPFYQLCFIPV
UniProt P11712, whole entry: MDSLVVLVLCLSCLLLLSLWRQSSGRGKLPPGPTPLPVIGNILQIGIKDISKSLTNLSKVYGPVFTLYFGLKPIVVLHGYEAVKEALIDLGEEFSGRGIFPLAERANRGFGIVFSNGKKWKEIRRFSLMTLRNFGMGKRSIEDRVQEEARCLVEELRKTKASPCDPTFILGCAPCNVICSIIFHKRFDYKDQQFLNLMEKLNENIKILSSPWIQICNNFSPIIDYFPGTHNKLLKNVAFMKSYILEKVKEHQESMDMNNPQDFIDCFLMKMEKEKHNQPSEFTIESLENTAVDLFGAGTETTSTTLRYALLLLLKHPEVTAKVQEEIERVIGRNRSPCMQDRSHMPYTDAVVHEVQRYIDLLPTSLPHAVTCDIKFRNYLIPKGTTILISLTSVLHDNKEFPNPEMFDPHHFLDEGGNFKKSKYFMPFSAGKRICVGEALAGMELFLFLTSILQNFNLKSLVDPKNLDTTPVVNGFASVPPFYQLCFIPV
UniProt P10635, whole entry: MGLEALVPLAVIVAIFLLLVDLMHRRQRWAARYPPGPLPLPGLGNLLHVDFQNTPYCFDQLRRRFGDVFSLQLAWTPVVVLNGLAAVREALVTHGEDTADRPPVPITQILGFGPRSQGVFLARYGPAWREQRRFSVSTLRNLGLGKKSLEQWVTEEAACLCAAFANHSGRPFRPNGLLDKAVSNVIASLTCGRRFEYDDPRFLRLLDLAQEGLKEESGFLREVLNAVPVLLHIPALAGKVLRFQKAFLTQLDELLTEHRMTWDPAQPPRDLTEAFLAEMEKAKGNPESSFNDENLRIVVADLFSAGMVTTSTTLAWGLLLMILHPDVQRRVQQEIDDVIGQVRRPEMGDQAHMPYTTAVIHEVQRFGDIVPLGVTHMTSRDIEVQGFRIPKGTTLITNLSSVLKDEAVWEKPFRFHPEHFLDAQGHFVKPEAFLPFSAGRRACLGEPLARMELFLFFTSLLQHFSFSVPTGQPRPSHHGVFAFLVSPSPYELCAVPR

In US9603820B2, “Ornithine aminotransferase inhibition with GABA analogues for treatment of hepatocellular carcinoma” (Northwestern University, priority 2014, dated 2017):

Tests used:
CYP2C19 = CYP2C19 (Homo sapiens, UniProt P33261); format: in vitro ADME; details: microsomes
CYP3A4/5 [1] = test: CYP inhibition in human liver microsomes; format: in vitro ADME
CYP2B6 = biological target: T1, CYP2B6 (Homo sapiens, UniProt P20813); details: microsomes
T1 sequence (P20813 1-491): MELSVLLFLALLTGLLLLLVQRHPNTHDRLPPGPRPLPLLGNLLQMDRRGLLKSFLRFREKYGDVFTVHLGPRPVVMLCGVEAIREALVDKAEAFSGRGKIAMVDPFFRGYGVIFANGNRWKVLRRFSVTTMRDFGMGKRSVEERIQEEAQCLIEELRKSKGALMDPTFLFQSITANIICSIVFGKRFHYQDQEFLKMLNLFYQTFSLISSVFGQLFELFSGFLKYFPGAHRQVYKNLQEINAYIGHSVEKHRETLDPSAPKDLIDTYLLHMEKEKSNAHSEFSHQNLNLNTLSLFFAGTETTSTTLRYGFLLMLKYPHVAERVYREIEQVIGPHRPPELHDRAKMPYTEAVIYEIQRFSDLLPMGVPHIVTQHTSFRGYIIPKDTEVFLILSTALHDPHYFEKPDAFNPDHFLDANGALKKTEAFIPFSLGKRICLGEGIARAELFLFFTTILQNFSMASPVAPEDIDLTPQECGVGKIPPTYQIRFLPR

CYP2C9 = CYP2C9 (Homo sapiens, UniProt P11712); details: microsomes
CYP2D6 = CYP2D6 (Homo sapiens, UniProt P10635); details: microsomes
CYP3A4/5 [2] = test: CYP induction in cultured human hepatocytes; details: concentrations up to 100 μM, 3 days

N[C@H]1C[C@@H](C(=O)O)CC1=C(F)F [CPP-115, (1S,3S)-3-amino-4-difluoromethylenyl-1-cyclopentanoic acid]
time- or metabolism-dependent inhibition of CYP2C19 (CYP2C19): little or no evidence of either time- or metabolism-dependent inhibition | time- or metabolism-dependent inhibition of CYP3A4/5 (CYP3A4/5 [1]): little or no evidence of either time- or metabolism-dependent inhibition | time- or metabolism-dependent inhibition of CYP2B6 (CYP2B6): little or no evidence of either time- or metabolism-dependent inhibition | time- or metabolism-dependent inhibition of CYP2C9 (CYP2C9): little or no evidence of either time- or metabolism-dependent inhibition | time- or metabolism-dependent inhibition of CYP2D6 (CYP2D6): little or no evidence of either time- or metabolism-dependent inhibition | induction of CYP3A4/5 activity (CYP3A4/5 [2]): not an inducer
